Measurements from patent US20120070411A1, “SUBSTITUTED NUCLEOTIDE ANALOGS” (Alios BioPharma, Inc., priority 2010, published 2012).

System: HCV genotype 1b HCV replicon harbored in Huh7 cells
Test: Combination testing with compound A10 in HCV replicon (CalcuSyn CI and MacSynergy II synergy volume)
Assay type: cell-based
Details: combination of compound A10 with the listed compound; MacSynergy II, Bliss independence; 25-100 synergistic, >100 strongly synergistic
Description: Two or more test compounds were tested in combination with each other using an HCV genotype 1b HCV replicon harbored in Huh7 cells with a stable luciferase (LUC) reporter. Cells were cultured under standard conditions in Dulbecco's modified Eagle's medium (DMEM; Mediatech Inc, Herndon, Va.) containing 10% heat-inactivated fetal bovine serum (FBS; Mediatech Inc, Herndon, Va.) 2 mM L-glutamine, and nonessential amino acids (JRH Biosciences). HCV replicon cells were plated in a 96-well plate at a density of 10^4 cells per well in DMEM with 10% FBS. […] The cells were incubated with no compound as a control, with the test compounds, or the combination of compounds for 72 h. The direct effects of the combination of the test compounds were examined using a luciferase (LUC) based reporter as determined by the Bright-Glo Luciferase Assay (Promega, Madison, Wis.). Dose-response curves were determined for individual compounds and fixed ratio combinations of two or more test compounds.
The effects of test compound combinations were evaluated by two separate methods. In the Loewe additivity model, the experimental replicon data was analyzed by using CalcuSyn (Biosoft, Ferguson, Mo.), a computer program based on the method of Chou and Talalay. The program uses the experimental data to calculate a combination index (CI) value for each experimental combination tested. […]

Compound: CS(=O)(=O)Nc1ccc2c(c1)S(=O)(=O)N=C(C1=C(O)[C@@H]3[C@H]4CC[C@H](C4)[C@@H]3N(Cc3ccc(F)cc3)C1=O)N2 [ANA-598]
- Synergy Volume: 32 μM^2%
